Chains of the proteins cited; added tags and fusions are not shown. A line that says so, or that is headed by a name, gives the form on record, which may keep a tag or linker. Residues count along the entry.
UniProt Q07343, 212-736 with tags or gaps limits assumed: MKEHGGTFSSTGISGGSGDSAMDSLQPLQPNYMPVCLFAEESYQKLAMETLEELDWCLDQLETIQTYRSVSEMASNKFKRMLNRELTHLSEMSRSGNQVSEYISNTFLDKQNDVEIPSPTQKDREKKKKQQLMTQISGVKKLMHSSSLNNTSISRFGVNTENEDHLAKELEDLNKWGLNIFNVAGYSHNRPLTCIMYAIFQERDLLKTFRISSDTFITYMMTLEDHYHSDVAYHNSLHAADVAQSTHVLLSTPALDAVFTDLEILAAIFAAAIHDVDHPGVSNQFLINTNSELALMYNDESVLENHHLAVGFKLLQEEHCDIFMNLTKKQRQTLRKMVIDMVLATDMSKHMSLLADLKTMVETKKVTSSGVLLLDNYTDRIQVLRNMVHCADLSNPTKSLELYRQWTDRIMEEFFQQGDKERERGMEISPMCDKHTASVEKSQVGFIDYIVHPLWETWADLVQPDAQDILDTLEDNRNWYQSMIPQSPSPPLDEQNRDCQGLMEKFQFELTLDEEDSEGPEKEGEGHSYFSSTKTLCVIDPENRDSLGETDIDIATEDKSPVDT
UniProt P20309, whole entry, looked up: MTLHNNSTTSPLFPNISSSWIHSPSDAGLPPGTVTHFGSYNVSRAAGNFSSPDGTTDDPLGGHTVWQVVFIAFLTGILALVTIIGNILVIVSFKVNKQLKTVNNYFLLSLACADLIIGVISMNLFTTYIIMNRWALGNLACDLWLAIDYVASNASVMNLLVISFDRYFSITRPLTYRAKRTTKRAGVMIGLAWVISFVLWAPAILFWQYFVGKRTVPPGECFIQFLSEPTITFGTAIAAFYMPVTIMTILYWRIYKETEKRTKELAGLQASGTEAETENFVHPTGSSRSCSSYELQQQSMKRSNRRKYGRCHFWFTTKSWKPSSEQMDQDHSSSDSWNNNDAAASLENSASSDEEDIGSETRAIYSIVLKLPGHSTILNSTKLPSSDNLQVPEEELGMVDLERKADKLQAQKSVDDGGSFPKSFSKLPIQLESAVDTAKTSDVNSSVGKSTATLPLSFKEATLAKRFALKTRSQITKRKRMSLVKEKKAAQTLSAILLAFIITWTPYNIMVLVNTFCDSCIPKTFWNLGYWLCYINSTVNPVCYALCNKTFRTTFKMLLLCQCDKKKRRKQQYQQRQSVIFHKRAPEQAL

According to patent US9809582B2, “Aminoester derivatives” (CHIESI FARMACEUTICI S.p.A., priority 2015, dated 2017):

Experiments:
Human recombinant PDE4B2 = Human recombinant PDE4B2 (Homo sapiens (Human), UniProt Q07343); experiment: PDE4B2 HTRF assay; type: biochemical; settings: read-out: PDE4B2 IC50 Activity
Human M3 receptor = Human M3 receptor (Homo sapiens (Human), UniProt P20309); experiment: M3 receptor radioligand binding assay; settings: read-out: M3 IC50 Activity

COc1ccc([C@H](Cc2c(Cl)c[n+]([O-])cc2Cl)OC(=O)c2ccc(CNCC(O)(C(=O)O[C@H]3CN4CCC3CC4)c3cccs3)s2)cc1OC (some centres unmarked)
IC50 (Human recombinant PDE4B2): < 1 nM
IC50 (Human M3 receptor): 1 to 10 nM
